By UniProt entry, the sequences of proteins in these tests, tags left out.
UniProt P42330, whole entry: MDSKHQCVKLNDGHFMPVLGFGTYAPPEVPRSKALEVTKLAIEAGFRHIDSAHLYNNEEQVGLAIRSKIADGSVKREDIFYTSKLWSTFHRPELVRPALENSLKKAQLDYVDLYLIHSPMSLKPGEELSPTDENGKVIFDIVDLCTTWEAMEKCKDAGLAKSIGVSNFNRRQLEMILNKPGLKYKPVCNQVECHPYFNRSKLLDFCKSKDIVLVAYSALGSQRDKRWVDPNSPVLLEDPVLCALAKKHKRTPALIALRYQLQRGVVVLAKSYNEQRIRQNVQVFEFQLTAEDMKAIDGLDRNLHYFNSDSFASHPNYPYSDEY
UniProt P37059, whole entry: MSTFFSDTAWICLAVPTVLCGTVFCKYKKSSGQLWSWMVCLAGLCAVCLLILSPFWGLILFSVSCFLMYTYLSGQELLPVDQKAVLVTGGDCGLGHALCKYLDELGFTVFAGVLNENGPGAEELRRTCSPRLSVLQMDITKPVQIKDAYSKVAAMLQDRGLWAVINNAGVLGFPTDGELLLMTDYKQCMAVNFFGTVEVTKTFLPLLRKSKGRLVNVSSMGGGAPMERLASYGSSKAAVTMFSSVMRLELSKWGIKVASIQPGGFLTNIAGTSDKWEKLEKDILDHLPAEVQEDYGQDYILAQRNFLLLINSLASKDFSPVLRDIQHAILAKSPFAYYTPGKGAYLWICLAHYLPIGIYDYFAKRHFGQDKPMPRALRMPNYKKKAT

In US6541463B1, “Inhibitors of type 5 and type 3 17β-hydroxysteroid dehydrogenase and methods for their use” (Endorecherche, Inc., priority 1998, dated 2003):

Key:
ZR-75-1 cells [1] = assay: Antiestrogenic activity: inhibition of E2-induced proliferation of ZR-75-1 cells; parameters: ZR-75-1 Activity, E2 / ZR-75-1 Activity E2 E^−6: unit not given here
ZR-75-1 cells [2] = assay: Estrogenic activity: stimulation of proliferation of ZR-75-1 cells; type: cell-based, human
[3] = molecular target: human type 5 17β-hydroxysteroid dehydrogenase (Homo sapiens, UniProt P42330); assay: Inhibition of human type 5 17β-HSD activity in transfected 293 cells; type: cell-based; details: read-out: Inhibition Type V 17β-HSD IC50
[4] = tested on: Shionogi mouse mammary carcinoma cells; assay: Androgenic activity: stimulation of proliferation of Shionogi cells
[5] = tested on: Shionogi mouse mammary carcinoma cells; assay: Antiandrogenic activity: inhibition of DHT-induced proliferation of Shionogi cells; type: cell-based; details: for IC50: read-out: Antiandrogenic Activity Shionogi, DHT [IC50]; for Antiandrogenic Activity Shionogi, DHT / IC50: DHT
[6] = In vivo assay of oral bioavailability (plasma AUC 0-7 h by LCMS/MS)
[7] = molecular target: human type 2 17β-hydroxysteroid dehydrogenase (Homo sapiens, UniProt P37059); assay: Enzymatic assay for type 2 17β-HSD; details: for Inhibition Type 2 17β-HSD Activity [% Inh.]: at 3.10^-8M

Row | Structure (SMILES) | ZR-75-1 Activity, E2 (ZR-75-1 cells [1]; E2) | ZR-75-1 Activity, E2 (ZR-75-1 cells [1]; E2, E^−8) | ZR-75-1 Activity, Basal (ZR-75-1 cells [2]; E^−6) | ZR-75-1 Activity, Basal (ZR-75-1 cells [2]; E^−8) | IC50 [3] [nM] | Androgenic Activity Shionogi, Basal ([4]; E^−6) | Androgenic Activity Shionogi, Basal ([4]; E^−7) | Antiandrogenic Activity Shionogi, DHT ([5]; E^−6) | Antiandrogenic Activity Shionogi, DHT ([5]; E^−7) | Oral Bioavailability AUC 0-7h ([6]; AUC 0-7h) [ng·h/mL] | IC50 [5] [nM] | Inhibition Type 2 17β-HSD Activity [% Inh.] [7] | IC50 ([3]; Table 4′) [nM] | Antiandrogenic Activity Shionogi DHT E^−6 ([5]; Table 4′, DHT-induced proliferation, E^−6 (10^−6 M)) [%] | Oral Bioavailability AUC 0-7h ([6]; Table 4′, oral, rat plasma) [ng·h/mL] | IC50 ([7]; read-out: Inhibition Type 2 17β-HSD Activity IC50, Table 4′) [µM]
1 | CC(=O)[C@@]1(OC(=O)Cc2ccc(Cl)cc2)CC[C@H]2[C@@H]3C=C(C)C4=CC(=O)CC[C@]4(C)[C@H]3CC[C@@]21C | −24 | 0 | 19 | 0 | 5.1 | −27 | 4 | −87 | −21 | 53 ± 23 |  |  |  |  |  | 
2 | CC(=O)[C@@]1(OC(=O)C(C)C)CC[C@H]2[C@@H]3C=C(C)C4=CC(=O)C[C@H](C)[C@]4(C)[C@H]3CC[C@@]21C | −48 | −44 | 0 | 0 | 10.5 | −30 | 13 | −122 | −67 |  | 82 | [62] % |  |  |  | 
3 | CC(=O)[C@@]1(OC(=O)C2CCCCC2)CCC2C3C=C(C)C4=CC(=O)CC[C@]4(C)C3CC[C@@]21C (stereo partly drawn) | −48 | −35 | −13 | −13 | 6.8 | −48 | −31 | −132 | −79 |  | 93 | [39] % |  |  |  | 
4 | CCC(=O)O[C@]1(C(=O)N(C)C)CCC2C3C=C(C)C4=CC(=O)CC[C@]4(C)C3CC[C@@]21C (stereo partly drawn) |  |  |  |  | 6 | −56 | −25 | −108 | −25 | 257 ± 81 | 535 | [51] % |  |  |  | 
5 | CC1=CC2C(CC[C@@]3(C)C2CC[C@]3(OC(=O)C(C)C)C(=O)N(C)C)[C@@]2(C)CCC(=O)C=C12 (stereo partly drawn) |  |  |  |  | 4.1 | −42 | −25 | −68 | 0 | 181 ± 28 |  | [73] % |  |  |  | 
6 | CCC(=O)O[C@]1(C(C)=O)CCC2C3C=C(C)C4=CC(=O)C=C[C@]4(C)C3CC[C@@]21C (stereo partly drawn) |  |  |  |  | 3 | 0 | 0 | −111 | −94 | 18 ± 6.6 | 23 | [59] % |  |  |  | 
7 | CCCC(=O)O[C@]1(C(=O)N(C)C)CCC2C3C=C(C)C4=CC(=O)CC[C@]4(C)C3CC[C@@]21C (stereo partly drawn) |  |  |  |  | 5.8 | −45 | −25 | −113 | −86 | 58 ± 10 | 101 | [80] % |  |  |  | 
8 | CC(=O)[C@@]1(OC(=O)C2CCCC2)CCC2C3C=C(C)C4=CC(=O)C[C@H](C)[C@]4(C)C3CC[C@@]21C (stereo partly drawn) | −40 | −30 | 20 | 0 | 5.4 | −35 | −12 | −155 | −68 |  | 128 | [62] % |  |  |  | 
9 | CCN(C)C(=O)[C@@]1(OC(=O)CCCCl)CCC2C3C=C(C)C4=CC(=O)CC[C@]4(C)C3CC[C@@]21C (stereo partly drawn) |  |  |  |  | 5 | −12 | −6 | −104 | −89 | 130 ± 35 | 15.1 | [45] % |  |  |  | 
10 | CC(=O)[C@@]1(OC(=O)Cc2ccccc2)CCC2C3C=C(C)C4=CC(=O)CC[C@]4(C)C3CC[C@@]21C (stereo partly drawn) | −17 | −23 | 0 | −8 | 5.5 | −13 | −19 |  | −45 |  | 193 | [64] % |  |  |  | 
11 | CC(=O)[C@@]1(OC(=O)C(C)C)CCC2C3C=C(C)C4=CC(=O)CC[C@]4(C)C3CC[C@@]21C (stereo partly drawn) | −84 | −50 | −11 | 0 | 3.7 | −13 | 0 | −107 | −60 |  | 67 | [27] % |  |  |  | 
12 | COC(=O)c1ccc2c(c1)CCC1C2CC[C@@]2(C)C1CC[C@@]21CCC(C)(C)C(=O)O1 (stereo partly drawn) |  |  |  |  |  |  |  |  |  |  |  |  | 25 | −84 | 136 ± 33 | > 10
13 | CC(=O)[C@@]1(OC(=O)CCCBr)CCC2C3C=C(C)C4=CC(=O)CC[C@]4(C)C3CC[C@@]21C (stereo partly drawn) | −73 | −67 | −13 | −9 | 3.5 | −15 | −17 | −101 | −83 | 16 ± 5 | 35 |  |  |  |  | 
14 | CCCCC(=O)O[C@]1(C(C)=O)CCC2C3C=C(C)C4=CC(=O)C[C@H](C)[C@]4(C)C3CC[C@@]21C (stereo partly drawn) | −35 | −10 | −8 | 0 | 31 | −27 | −10 | −122 | −82 |  | 75 | [42] % |  |  |  | 
15 | CC(=O)[C@@]1(OC(=O)C(C)(C)C)CCC2C3C=C(C)C4=CC(=O)C[C@H](C)[C@]4(C)C3CC[C@@]21C (stereo partly drawn) | −11 | −25 | 11 | 0 | 31 | −31 | 0 | −106 | 15 |  | 674 | [32] % |  |  |  | 
16 | COc1ccc(CC(=O)O[C@]2(C(C)=O)CCC3C4C=C(C)C5=CC(=O)CC[C@]5(C)C4CC[C@@]32C)cc1 (stereo partly drawn) | −71 | −52 | 0 | 0 | 9 | −33 | 10 | 66 | −12 | 83 ± 16 |  |  |  |  |  | 
17 | CCC(=O)O[C@]1(C(=O)N(C)Cc2ccccc2)CCC2C3C=C(C)C4=CC(=O)CC[C@]4(C)C3CC[C@@]21C (stereo partly drawn) |  |  |  |  | 11.6 | −64 | −23 | −118 | −32 | 23 ± 5 |  |  |  |  |  | 
18 | CC(=O)[C@@]1(OC(=O)C(C)(C)C)CCC2C3C=C(C)C4=CC(=O)CC[C@]4(C)C3CC[C@@]21C (stereo partly drawn) | −40 | −26 | 0 | −12 | 7.2 | −41 | −15 | −117 | −39 |  |  | [20] % |  |  |  | 
19 | CC(=O)[C@@]1(OC(=O)Cc2ccc(F)cc2)CCC2C3C=C(C)C4=CC(=O)CC[C@]4(C)C3CC[C@@]21C (stereo partly drawn) |  |  |  |  | 5 | −24 | −10 | −89 | −17 | 33 ± 7 |  |  |  |  |  | 
20 | CCN(C)C(=O)[C@@]1(OC(=O)C(C)C)CCC2C3C=C(C)C4=CC(=O)CC[C@]4(C)C3CC[C@@]21C (stereo partly drawn) |  |  |  |  | 8 | −30 | −9 | −66 | 1 | 82 ± 15 |  | [65] % |  |  |  | 
21 | CCN(C)C(=O)[C@@]1(OC(C)=O)CCC2C3C=C(C)C4=CC(=O)CC[C@]4(C)C3CC[C@@]21C (stereo partly drawn) |  |  |  |  | 17 | −23 | −15 | −71 | 7 | 252 ± 61 |  | [28] % |  |  |  | 

Read-outs that look alike come from different tables or passages of the source.
